## Properties, as collected for the OPERA models

Source: data files of OPERA 2.9 (Mansouri et al.), github.com/kmansouri/OPERA.

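The numbers are reported measurements, compiled and curated for the OPERA QSAR suite. A listed value is a point estimate from one report or more. Conditions of the individual experiments are not part of the data. The measured form (salt, isomer or mixture) is not always the one drawn. Some upstream entries may be estimates or bounds without being marked so.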

Melting points are in °C. Boiling points are in °C, nominally at 760 mmHg. The octanol-water partition coefficient is given as log10; larger values mean a more lipophilic compound. Solubility in water is on a log10 molar scale (set defined at 25 °C). Vapor pressure is log10 of mmHg; the set covers 15 to 30 °C, mostly 20 to 25 °C. The Henry's law constant is on a log10 scale in atm·m3/mol (set defined at 25 °C); higher favours air over water. The unbound fraction in human plasma runs from 0 (all bound) to 1 (all free). Intrinsic clearance (human, µL/min per 10^6 hepatocytes): higher is faster turnover, and 0 stands for none detected.

CC(c1ccc(O)cc1)(c1ccc(O)cc1)c1ccc(O)cc1 has logP 3.88 and log solubility -4.087 (log10 mol/L) and vapor pressure -8.427 (log10 mmHg).
COc1cc(C)c(C(=O)c2c(OC)ccc(Br)c2C)c(OC)c1OC has log solubility -5.921 (log10 mol/L) and vapor pressure -5.939 (log10 mmHg) and log Henry constant -5.885 (log10 atm·m3/mol).
Cc1ccccc1CCl has logP 3.34 and log solubility -3.081 (log10 mol/L) and vapor pressure -0.399 (log10 mmHg).
CCCCCCCCn1sccc1=O has log Henry constant -7.686 (log10 atm·m3/mol) and plasma fu 0.02822 and intrinsic clearance 12.72 µL/min/10^6 cells.
C#C[C@@]1(O)CC[C@@H]2[C@H]3CC=C4C=C(OCC)CC[C@H]4[C@@H]3CC[C@]21C has MP 182.8 °C and logP 5.8 and log solubility -7.044 (log10 mol/L) and vapor pressure -8.909 (log10 mmHg).
C[C@]12CC[C@H]3[C@@H](C=CC4=CC(=O)CC[C@@H]43)[C@@H]1CC[C@@H]2O (stereo in doubt) has MP 185.9 °C and logP 3.1 and log solubility -3.723 (log10 mol/L) and vapor pressure -9.73 (log10 mmHg).
COC(=O)C1(O)c2ccccc2-c2ccc(Cl)cc21 (stereo not drawn) has vapor pressure -6.011 (log10 mmHg) and log Henry constant -8.108 (log10 atm·m3/mol).
COc1ccc(C)cc1N has log solubility -1.899 (log10 mol/L) and vapor pressure -1.979 (log10 mmHg) and plasma fu 0.4043.
COc1cc2c(cc1OC)[C@@]13CCN4CC5=CCO[C@H]6CC(=O)N2[C@H]1[C@H]6[C@H]5C[C@H]43 has bp 470 °C and log solubility -2.09 (log10 mol/L).
Clc1ccc(Cl)c(-c2c(Cl)c(Cl)c(Cl)c(Cl)c2Cl)c1 has MP 147 °C and vapor pressure -5.265 (log10 mmHg).
CNC(=O)N(C)c1nnc(C(C)(C)C)s1 has plasma fu 0.4175 and intrinsic clearance 5.28 µL/min/10^6 cells.
CCCN1C[C@H](CSC)C[C@@H]2c3cccc4[nH]cc(c34)C[C@H]21 has logP 4 and log solubility -5.731 (log10 mol/L) and plasma fu 0.1.
O=C(OOC(=O)c1ccc(Cl)cc1Cl)c1ccc(Cl)cc1Cl has log solubility -8.279 (log10 mol/L) and vapor pressure -4.171 (log10 mmHg).
N=c1nc(Nc2nc(=N)[nH]c(=N)[nH]2)[nH]c(=N)[nH]1 has logP -1 and log solubility -4.332 (log10 mol/L).
CC(=O)c1cc(C(C)(C)C)cc2c1CCC2(C)C has log solubility -4.871 (log10 mol/L) and vapor pressure -3.627 (log10 mmHg).
COc1ccc(CN2CCNCC2)c(OC)c1OC has logP 1.143 and vapor pressure -4.727 (log10 mmHg).
Clc1ccccc1-c1nnc(-c2ccccc2Cl)nn1 has log Henry constant -5.78 (log10 atm·m3/mol) and intrinsic clearance 0 µL/min/10^6 cells.
CN(C)NC(=O)CCC(=O)O has log Henry constant -6.85 (log10 atm·m3/mol) and intrinsic clearance 2.29 µL/min/10^6 cells.
O=C(O)CCCCCNc1nc(NCCCCCC(=O)O)nc(NCCCCCC(=O)O)n1.OCCN(CCO)CCO.OCCN(CCO)CCO.OCCN(CCO)CCO has MP -32 °C and vapor pressure -5.445 (log10 mmHg).